Data on one compound can be found in US20080194482A1, “Selective Apac2 Receptor Peptide Agonists” (priority 2005, published 2008).

By UniProt entry, the sequences of proteins in these tests, tags left out. Residues count along the entry.
UniProt P30083, 31-459: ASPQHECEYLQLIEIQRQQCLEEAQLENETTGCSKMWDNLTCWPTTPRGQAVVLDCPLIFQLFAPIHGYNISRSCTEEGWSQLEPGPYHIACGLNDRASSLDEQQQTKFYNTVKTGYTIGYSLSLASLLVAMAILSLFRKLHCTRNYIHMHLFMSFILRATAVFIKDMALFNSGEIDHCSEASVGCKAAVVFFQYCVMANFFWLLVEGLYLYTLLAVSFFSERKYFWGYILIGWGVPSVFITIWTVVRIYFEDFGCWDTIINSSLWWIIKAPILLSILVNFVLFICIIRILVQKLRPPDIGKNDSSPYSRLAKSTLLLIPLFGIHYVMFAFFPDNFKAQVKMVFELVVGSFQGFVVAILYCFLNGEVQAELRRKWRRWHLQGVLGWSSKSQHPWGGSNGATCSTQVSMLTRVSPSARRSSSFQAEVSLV
UniProt P32241, 31-457: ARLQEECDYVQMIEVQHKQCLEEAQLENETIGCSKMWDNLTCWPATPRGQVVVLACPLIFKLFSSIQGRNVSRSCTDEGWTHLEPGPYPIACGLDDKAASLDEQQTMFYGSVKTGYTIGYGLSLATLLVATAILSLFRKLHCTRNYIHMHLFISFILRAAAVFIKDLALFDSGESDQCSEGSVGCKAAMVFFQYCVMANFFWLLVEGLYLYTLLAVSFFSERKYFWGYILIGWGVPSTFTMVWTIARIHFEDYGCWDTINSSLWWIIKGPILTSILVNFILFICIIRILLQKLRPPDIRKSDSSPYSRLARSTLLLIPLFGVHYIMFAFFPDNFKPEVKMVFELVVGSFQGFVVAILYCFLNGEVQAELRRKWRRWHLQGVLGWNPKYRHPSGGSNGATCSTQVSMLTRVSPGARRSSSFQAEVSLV

The nature of series [1]: Rat serum stability (activity remaining, CHO-VPAC2 DiscoveRx read-out). The class given is in vitro ADME. The following applies: 10 μM peptide in rat serum, overnight at 37° C. vs 4° C. with aprotinin; estimated by EC50, 4C/EC50, 37C. The procedure: The rat serum is stored at 4° C. until use and is used within two weeks. […] The aliquot is stored with aprotinin at 4° C. The aliquot is stored without aprotinin at 37° C. The aliquots are incubated overnight. […] The plate(s) are washed with cells twice in incubation buffer. The plates are allowed to hold 50 μL incubation media per well for 15 minutes. 50 μL solution per well is transferred to the cells from the plate prepared with 11 serial 5× dilutions of peptide for the 4° C. and 37° C. aliquot for each peptide studied, using the maximal concentrations that are indicated by the primary screen, in duplicate. This step dilutes the peptide concentration by a factor of two. The cells are incubated at room temperature for 30 minutes. […] The cells are incubated on the shaker (300 rpm) for 1 hour. Normal procedure with the DiscoveRx kit is followed. cAMP standards are included in column 12. EC50 values are determined from the cAMP assay data.

In the next series the target is T1, rat VPAC2 receptor (Rattus norvegicus, UniProt P35000).
T1 construct: expressed in transfected cells; host or cells: CHO-PO (transient, Lipofectamine)
T1 sequence (P35000 23-437): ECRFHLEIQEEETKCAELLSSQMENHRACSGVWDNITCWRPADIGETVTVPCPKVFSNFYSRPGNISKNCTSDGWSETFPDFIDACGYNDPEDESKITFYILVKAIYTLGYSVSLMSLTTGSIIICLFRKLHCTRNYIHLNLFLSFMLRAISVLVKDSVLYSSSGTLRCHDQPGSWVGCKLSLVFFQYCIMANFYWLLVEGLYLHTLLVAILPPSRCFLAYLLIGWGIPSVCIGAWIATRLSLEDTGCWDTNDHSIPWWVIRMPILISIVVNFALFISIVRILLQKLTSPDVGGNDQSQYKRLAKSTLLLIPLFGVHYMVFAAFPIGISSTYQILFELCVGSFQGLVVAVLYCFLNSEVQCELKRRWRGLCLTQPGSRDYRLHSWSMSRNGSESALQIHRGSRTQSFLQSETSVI
Briefly: DiscoveRx cAMP assay, in vitro potency at rat VPAC2 receptor. The format is cell-based. As to the method: (§1) DiscoveRx: CHO-PO cells are transiently transfected with rat VPAC1 or VPAC2 receptor DNA using commercially available transfection reagents (Lipofectamine from Invitrogen). The cells are seeded at a density of 10,000/well in a 96-well plate and are allowed to grow for 3 days in […] culture medium. At day 3, the assay is performed.
(§2) On the day of the experiment, the medium is removed. Also, the cells are washed twice. The cells are incubated in assay buffer plus IBMX for 15 minutes at room temperature. Afterwards, the stimuli are added and are dissolved in assay buffer. The stimuli are present for 30 minutes. Then, the assay buffer is gently removed. The cell lysis reagent of the DiscoveRx cAMP kit is added. Thereafter, the standard protocol for developing the cAMP signal as described by the manufacturer is used (DiscoveRx Inc., USA). EC50 values for cAMP generation are calculated from the raw signal or are based on absolute cAMP levels as determined by a standard curve performed on each plate.
(§3) Results for each agonist are the mean of two independent runs. Rat VPAC1 and VPAC2 results are only generated using the DiscoveRx assay.
A general note: cAMP levels reflect the balance of adenylyl cyclase and phosphodiesterase activity.

The target of a further series is T2, rat VPAC1 receptor (Rattus norvegicus, UniProt P30083).
T2 construct: expressed in transfected cells; host or cells: CHO-PO (transient, Lipofectamine)
Briefly: DiscoveRx cAMP assay, in vitro potency at rat VPAC1 receptor. The format is cell-based. The procedure: as §1, §2, §3

For a further series, the target named is T3, human VPAC1 (Homo sapiens, UniProt P32241).
T3 construct: expressed in transfected cells
Nature of the series: Filter binding assay, 125I-labeled VIP tracer, VPAC1 membranes.

The next series deals with T4, human PAC1 (Homo sapiens, UniProt P41586).
T4 construct: expressed in transfected cells
T4 sequence (P41586 21-468): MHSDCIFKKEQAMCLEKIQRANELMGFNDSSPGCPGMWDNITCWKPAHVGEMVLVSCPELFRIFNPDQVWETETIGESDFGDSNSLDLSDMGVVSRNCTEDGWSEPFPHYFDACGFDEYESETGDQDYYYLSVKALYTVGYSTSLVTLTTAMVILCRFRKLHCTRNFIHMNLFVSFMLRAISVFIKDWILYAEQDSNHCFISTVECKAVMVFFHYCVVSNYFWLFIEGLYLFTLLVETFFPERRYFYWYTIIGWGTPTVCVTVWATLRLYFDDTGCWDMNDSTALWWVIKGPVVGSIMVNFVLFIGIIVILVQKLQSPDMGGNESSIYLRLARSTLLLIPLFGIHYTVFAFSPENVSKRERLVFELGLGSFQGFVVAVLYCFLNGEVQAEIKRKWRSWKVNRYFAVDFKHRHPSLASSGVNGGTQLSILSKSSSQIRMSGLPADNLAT
Briefly: Filter binding assay, 125I-labeled PACAP-27 tracer, PAC1 membranes.

The next series has as its target T5, human VPAC2 (Homo sapiens, UniProt P41587).
T5 construct: expressed in transfected cells
T5 sequence (P41587 24-438): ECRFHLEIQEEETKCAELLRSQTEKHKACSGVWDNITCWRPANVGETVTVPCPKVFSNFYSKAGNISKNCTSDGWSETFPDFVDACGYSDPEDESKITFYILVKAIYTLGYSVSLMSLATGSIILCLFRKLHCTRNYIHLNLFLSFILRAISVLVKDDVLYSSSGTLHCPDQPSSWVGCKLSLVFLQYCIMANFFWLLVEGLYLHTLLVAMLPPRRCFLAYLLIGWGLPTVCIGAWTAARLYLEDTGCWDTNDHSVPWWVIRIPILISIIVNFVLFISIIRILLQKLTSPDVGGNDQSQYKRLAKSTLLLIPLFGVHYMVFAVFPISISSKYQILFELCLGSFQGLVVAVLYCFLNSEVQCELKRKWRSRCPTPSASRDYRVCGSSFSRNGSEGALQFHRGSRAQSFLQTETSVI
Nature of the series: Alpha screen cAMP assay, in vitro potency at human VPAC2 receptor. The class given is cell-based.

A value given as a limit tells only on which side of the number the result lay.

Usually EC50 stands for the concentration that produces a half-maximal response. Higher therefore signals lower potency in that assay. Broadly, the IC50 is the concentration needed to halve the response being measured. Regarding `CCCCCC(=O)N[C@@H](Cc1c[nH]cn1)C(=O)N[C@@H](CO)C(=O)N[C@@H](CC(=O)O)C(=O)N[C@@H](C)C(=O)N[C@H](C(=O)N[C@@H](Cc1ccccc1)C(=O)N[C@H](C(=O)N[C@@H](CC(=O)O)C(=O)N[C@@H](CCC(N)=O)C(=O)N[C@@H](Cc1ccc(OC)cc1)C(=O)N[C@H](C(=O)N[C@@H](CCCNC(=N)N)C(=O)NC(C)(C)C(=O)N[C@@H](CCCNC(=N)N)C(=O)NC(C)(C)C(=O)N[C@@H](CCC(N)=O)C(=O)N[C@@H](CC(C)C)C(=O)N[C@@H](C)C(=O)N[C@@H](C)C(=O)NC(C)(C)C(=O)N[C@@H](CCCCN)C(=O)N[C@@H](Cc1ccc(O)cc1)C(=O)N[C@@H](CC(C)C)C(=O)N[C@@H](CCC(N)=O)C(=O)N[C@@H](CO)C(=O)N[C@H](C(=O)N[C@@H](CCCCN)C(=O)NC(C)(C)C(=O)N[C@@H](CCCCN)C(=O)NCC(=O)NCC(=O)N1CCC[C@H]1C(=O)N[C@@H](CO)C(=O)N[C@@H](CO)C(=O)NCC(=O)N[C@@H](C)C(=O)N1CCC[C@H]1C(=O)N1CCC[C@H]1C(=O)N1CCC[C@H]1C(=O)N[C@@H](CO)C(=O)O)[C@@H](C)CC)[C@@H](C)O)[C@@H](C)O)C(C)C` [Agonist P408], the “Rat Serum Stability (estimated purity in % after overnight incub.)” value in series [1] is 142.44%. Besides, the EC50 at rat VPAC2 receptor stood at 0.04 nM; on rat VPAC1 receptor it was 0.35 nM; at human VPAC2, 0.12 nM. In addition, the IC50 was above 3000 nM at human VPAC1 and above 25000 nM on human PAC1.
